Results from ChEMBL document CHEMBL1123262, “Nonquaternary cholinesterase reactivators. 3. 3(5)-Substituted 1,2,4-oxadiazol-5(3)-aldoximes and 1,2,4-oxadiazole-5(3)-thiocarbohydroximates as reactivators of organophosphonate-inhibited eel and human acetylcholinesterase in vitro” (1986).
Where “and” joins values, the source holds several entries; their conditions need not be identical. Equal values may be shown once.

Sequences of proteins named here, by UniProt entry; tags and fusion partners are left off. A change or cut given only in a name is not applied to a line headed by its entry.
UniProt O42275: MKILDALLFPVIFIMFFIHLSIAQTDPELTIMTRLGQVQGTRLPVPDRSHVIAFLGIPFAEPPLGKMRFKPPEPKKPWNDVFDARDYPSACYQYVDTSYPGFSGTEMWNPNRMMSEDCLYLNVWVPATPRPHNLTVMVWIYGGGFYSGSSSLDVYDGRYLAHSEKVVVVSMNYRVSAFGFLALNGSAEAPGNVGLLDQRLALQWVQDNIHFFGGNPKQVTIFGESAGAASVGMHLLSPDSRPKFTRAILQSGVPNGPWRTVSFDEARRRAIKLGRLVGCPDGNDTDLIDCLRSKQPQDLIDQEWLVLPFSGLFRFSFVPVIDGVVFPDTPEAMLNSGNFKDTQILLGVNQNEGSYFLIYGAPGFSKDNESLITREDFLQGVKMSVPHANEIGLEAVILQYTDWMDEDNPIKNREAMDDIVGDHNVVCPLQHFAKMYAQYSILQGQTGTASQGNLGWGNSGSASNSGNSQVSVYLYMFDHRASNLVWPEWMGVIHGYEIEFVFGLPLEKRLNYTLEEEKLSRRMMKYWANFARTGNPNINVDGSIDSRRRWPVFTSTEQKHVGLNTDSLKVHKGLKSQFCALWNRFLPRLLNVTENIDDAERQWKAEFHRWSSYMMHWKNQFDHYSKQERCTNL
UniProt P22303: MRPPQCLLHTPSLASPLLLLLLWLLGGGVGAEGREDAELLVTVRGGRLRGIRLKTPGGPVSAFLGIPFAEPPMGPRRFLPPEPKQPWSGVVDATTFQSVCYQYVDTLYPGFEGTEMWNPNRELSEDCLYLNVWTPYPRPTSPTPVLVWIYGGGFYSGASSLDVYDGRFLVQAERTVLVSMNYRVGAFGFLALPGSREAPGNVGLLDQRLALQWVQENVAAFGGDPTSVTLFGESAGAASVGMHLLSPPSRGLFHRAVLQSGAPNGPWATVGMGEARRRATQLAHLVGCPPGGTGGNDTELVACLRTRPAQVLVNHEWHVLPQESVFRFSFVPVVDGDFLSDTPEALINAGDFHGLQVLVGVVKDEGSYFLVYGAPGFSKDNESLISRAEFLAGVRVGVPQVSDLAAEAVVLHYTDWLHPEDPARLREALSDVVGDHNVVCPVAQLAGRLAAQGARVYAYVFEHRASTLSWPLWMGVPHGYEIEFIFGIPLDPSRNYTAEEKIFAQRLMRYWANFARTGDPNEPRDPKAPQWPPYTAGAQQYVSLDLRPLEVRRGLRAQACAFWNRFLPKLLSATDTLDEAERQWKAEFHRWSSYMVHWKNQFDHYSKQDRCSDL

What was measured:
[1] = molecular target: Acetylcholinesterase (Electrophorus electricus) (UniProt O42275); test: In vitro rate of EPMP-inhibited acetylcholinesterase reactivation, by the protonated (oxime) form.
[2] = molecular target: Acetylcholinesterase (Homo sapiens) (UniProt P22303); test: as above
[3] = molecular target: Acetylcholinesterase (Electrophorus electricus) (UniProt O42275); test: In vitro rate of EPMP-inhibited acetylcholinesterase reactivation by anionic (oximate) form.
[4] = molecular target: Acetylcholinesterase (Homo sapiens) (UniProt P22303); test: In vitro rate of EPMP-inhibited acetylcholinesterase reactivation, by anionic (oximate) form.
[5] = molecular target: Acetylcholinesterase (Electrophorus electricus) (UniProt O42275); test: AChE activity of compound on incubation interval (25 min) at 100 uM; 100*Observed activity/Corrected activity i.e. (100 At/Ac)
[6] = molecular target: Acetylcholinesterase (Electrophorus electricus) (UniProt O42275); test: AChE activity of compound on incubation interval (25 min) at 30 uM; 100*Observed activity/Corrected activity i.e. (100 At/Ac)
[7] = molecular target: Acetylcholinesterase (Electrophorus electricus) (UniProt O42275); test: AChE activity of compound on incubation interval (33 min) at 10 uM; 100*Observed activity/Corrected activity i.e. (100 At/Ac)
[8] = molecular target: Acetylcholinesterase (Electrophorus electricus) (UniProt O42275); test: AChE activity of compound on incubation interval (33 min) at 3 uM; 100*Observed activity/Corrected activity i.e. (100 At/Ac)

| SMILES | kHOX [1] | kHOX [2] [M⁻¹ s⁻¹] | KOX [3] | KOX [4] | Relative activity of AChE [5] | Relative activity of AChE [6] | Relative activity of AChE [7] | Relative activity of AChE [8] |
| --- | --- | --- | --- | --- | --- | --- | --- | --- |
| O/N=C/c1nc(Cc2ccccc2)no1 | 1.93 M⁻¹ s⁻¹ | 0.827 | 6.13 M⁻¹ s⁻¹ | 2.63 M⁻¹ s⁻¹ | – | – | – | – |
| C[n+]1ccccc1C=NO | 73.6 M⁻¹ s⁻¹ | 9.05 | 254 M⁻¹ s⁻¹ | 31.3 M⁻¹ s⁻¹ | – | – | – | – |
| CCN(CC)CCS/C(=N\O)c1nc(C)no1 | 0.0483 M⁻¹ s⁻¹ | 0.0233 | 0.0517 M⁻¹ s⁻¹ | 0.025 M⁻¹ s⁻¹ | – | – | – | – |
| Cc1noc(/C=N/O)n1 | 2.17 M⁻¹ s⁻¹ | 0.187 | 9.03 M⁻¹ s⁻¹ | 0.79 M⁻¹ s⁻¹ | – | – | – | – |
| CCN(CC)CCS/C(=N\O)c1nc(-c2ccccc2)no1 | 0.388 M⁻¹ s⁻¹ and 0.347 M⁻¹ s⁻¹ | – | 0.612 M⁻¹ s⁻¹ and 0.365 M⁻¹ s⁻¹ | 0.232 M⁻¹ s⁻¹ and 0.553 M⁻¹ s⁻¹ | 102 | 91 | 79 | 46 |
| CCCCCCCCc1noc(/C=N/O)n1 | 6.98 M⁻¹ s⁻¹ | 2.45 | 36.2 M⁻¹ s⁻¹ | 12.7 M⁻¹ s⁻¹ | – | – | – | – |
| C[n+]1c(/C=N/O)cccc1CCO[n+]1ccc(C(N)=O)cc1 | 4.68 M⁻¹ s⁻¹ | 57.2 | 6.87 M⁻¹ s⁻¹ | 84 M⁻¹ s⁻¹ | – | – | – | – |
| Cc1noc(/C=N\O)n1 | 0.233 M⁻¹ s⁻¹ | 0.04 | 2.57 M⁻¹ s⁻¹ | 0.4 M⁻¹ s⁻¹ | – | – | – | – |
| CCN(CC)CCS/C(=N\O)c1nc(Cc2ccccc2)no1 | 0.0233 M⁻¹ s⁻¹ | 0.0233 | 0.025 M⁻¹ s⁻¹ | 0.025 M⁻¹ s⁻¹ | – | – | – | – |
| O/N=C/c1nc(-c2cccs2)no1 | 5.45 M⁻¹ s⁻¹ | 0.47 | 25.8 M⁻¹ s⁻¹ | 1.73 M⁻¹ s⁻¹ | – | – | – | – |
| O/N=C/c1nc(-c2cccc3ccccc23)no1 | 9.78 M⁻¹ s⁻¹ | 1.7 | 37.3 M⁻¹ s⁻¹ | 6.5 M⁻¹ s⁻¹ | – | – | – | – |
| CCN(CC)CCS/C(=N\O)c1nc(-c2cccc3ccccc23)no1 | 0.637 M⁻¹ s⁻¹ | – | 0.687 M⁻¹ s⁻¹ | – | – | – | – | – |
| CCCCCCCCc1noc(/C(=N/O)SCCN(CC)CC)n1 | 1.07 M⁻¹ s⁻¹ | – | – | – | – | – | – | – |
| CCN(CC)CCS/C(=N\O)c1nc(C(C)(C)C)no1 | 0.0142 M⁻¹ s⁻¹ | – | 0.0157 M⁻¹ s⁻¹ | – | – | – | – | – |
| CCN(CC)CC/N=C(\NO)c1nc(-c2ccccc2)no1 | 0.323 M⁻¹ s⁻¹ | – | 5.45 M⁻¹ s⁻¹ | – | – | – | – | – |
| O/N=C/c1nc(-c2ccncc2)no1 | – | 1.7 | – | 5.97 M⁻¹ s⁻¹ | – | – | – | – |
| CC(C)(C)c1noc(/C=N/O)n1 | 0.368 M⁻¹ s⁻¹ | 0.527 | 1.12 M⁻¹ s⁻¹ | 0.39 M⁻¹ s⁻¹ | – | – | – | – |
